Key:
[1] = Description: The thermal stability of drugs is an essential property necessary to control the formulation method of the finished drug. […] Both the temperature at which decomposition begins (Tonset) and the temperature at which mass loss accelerates to its maximum (Tmax) were identified. […]
(§1) XRD, thermal stability (TG), phase transition temperatures (DSC), specific rotation, solubility in water, and lipophilicity were also determined. […]
Thermal stability was assessed using thermogravimetric analyses performed on a Netzsch thermomicrobalance TG 209 F1 Libra. The analysis was conducted under oxidative conditions, with a nitrogen flow (as protective gas) of 10 mL/min, an airflow of 25 mL/min, and a temperature range of 25 to 1000 °C. Samples of roughly 5 mg weight were heated at 10°/min. The onset decomposition temperature was calculated using the intersection of TG curve tangents. The temperatures associated with the quickest sample weight loss were calculated using the first derivative of the TG curve (DTG curve). […]

[2] = remark: listed apart in the source
Description: Lipophilicity is essential for predicting the hydrophobicity and partitioning of drugs in biological systems. Therefore, the test was prepared using the shake-flask method.

[3] = Permeation of the active substance through the skin, Franz diffusion cell; assay type: in vitro ADME, pig; settings: API in emulsion-based gel formulation
Source text: The steady-state flux was estimated from the slope of the linear portion of the plot of cumulative mass in the acceptor phase over time.

[4] = remark: listed apart in the source
Description: measurements were made with a 1 nm accuracy in a 10 mm quartz cell over the 190 to 400 nm […]
as §1
Thermal stability was assessed using thermogravimetric analyses performed on a Netzsch thermomicrobalance TG 209 F1 Libra. The analysis was conducted under oxidative conditions, with a nitrogen flow (as protective gas) of 10 mL/min, an airflow of 25 mL/min, and a temperature range of 25 to 1000 °C. Samples of roughly 5 mg weight were heated at 10°/min. The onset decomposition temperature was calculated using the intersection of TG curve tangents. The temperatures associated with the quickest sample weight loss were calculated using the first derivative of the TG curve (DTG curve).
Phase transformation temperatures were registered using a DSC 250 from TA Instruments' Discovery DSC Series (New Castle, Delaware, USA). The aluminum pan with a crimped lid was loaded with the samples, which weighed 5 mg on average. The nitrogen atmosphere used for the measurements was 20 mL/min. […]
The measurement of specif ic rotation [α] was determined with an AUTOPOL IV polarimeter provided by Rudolph Research Analytical (Hackettstown, NJ, USA). […] The optical rotation was determined at the accuracy of 0.001 o at 20.0 ± 0.1 °C and 589 nm wavelength in a TempTrolTM […]

L-phenylalanine ethyl ester ibuprofenate [[PheOEt][IBU]]
Tonset, the onset temperature of the thermal degradation [1]: 160.8 °C
T5%, decomposition temperature, 5% weight loss of the initial mass ([1]; TG, oxidative conditions): 141.6 °C
T50%, decomposition temperature, 50% weight loss of the initial mass ([1]; TG, oxidative conditions): 221.7 °C
log p [2]: 1.336 ± 0.046
Cumulative mass after 24 h of permeation, API named in text [3]: 948.6 ± 87.5 µg IBU/cm^2
Solubility in water [4]: 0.716 ± 0.080 g/L

— PMC10217311 (Gels, 2023)
